What was measured:
[1] = target: T1, A2 receptors (Homo sapiens, UniProt P29274); assay: antagonism of NECA-stimulated adenylate cyclase in human platelet membranes (A); format: biochemical
T1 construct: Human Platelet Membranes; from tissue; host or cells: human platelets (membranes)

[2] = test system: adenosine receptor; details: cited from earlier work

Structure (SMILES)	Kb [1]	selectivity among adenosine receptors [2]
Cn1cnc2c(N)ncnc21 [9-Methyladenine (9-MA), 9-Methyladenine, reference compound]	24 µM	–
CCNC(=O)[C@H]1O[C@@H](n2cnc3c(N)ncnc32)[C@H](O)[C@@H]1O [NECA, 5'-N-ethylcarboxamido-adenosine]	–	selective for A2 adenosine receptors

Source: patent US5565566A (Discovery Therapeutics, Inc., priority 1995, dated 1996)
